Assay results: article PMC3578425 (Pharmacological research : the official journal of the …, 2010)

Sequences of proteins named here, by UniProt entry; tags and fusion partners are left off. A change or cut given only in a name is not applied to a line headed by its entry.
UniProt P47900: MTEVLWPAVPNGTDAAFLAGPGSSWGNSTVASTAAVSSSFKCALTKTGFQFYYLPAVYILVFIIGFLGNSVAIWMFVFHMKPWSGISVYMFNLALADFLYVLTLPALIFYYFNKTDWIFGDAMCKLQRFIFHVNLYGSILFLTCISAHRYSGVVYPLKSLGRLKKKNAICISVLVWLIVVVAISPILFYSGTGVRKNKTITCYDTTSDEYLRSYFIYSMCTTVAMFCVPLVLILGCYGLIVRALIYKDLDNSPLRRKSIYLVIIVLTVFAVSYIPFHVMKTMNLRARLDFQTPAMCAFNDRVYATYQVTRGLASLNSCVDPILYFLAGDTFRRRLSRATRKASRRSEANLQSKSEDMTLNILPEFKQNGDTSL

Assays:
[1] = target: human P2Y1 receptor (Homo sapiens, UniProt P47900); type: binding
[2] = target: P2Y1 receptors on human platelets (Homo sapiens, UniProt P47900); experiment: [125I]MRS2500 binding assay with intact washed human platelets

Compound: CSc1nc(N)c2ncn([C@@H]3O[C@H](COP(=O)(O)OP(=O)(O)O)[C@@H](O)[C@H]3O)c2n1 [2MeSADP, 2-methylthio-adenosine 5′-diphosphate, reference compound]
- Ki [1]: 70 ± 30 nM
- Ki [2]: 46.5 ± 1.7 nM
